Experiment [1] concerns the target T1, Human immunodeficiency virus type 1 protease (Human immunodeficiency virus 1, UniProt Q72874). The experiment in a line: Inhibition constant for human immunodeficiency virus type 1 protease.
Experiment [2] has as its target T1, Human immunodeficiency virus type 1 protease. Description: Binding affinity for human immunodeficiency virus type 1 protease.

Usually Ki stands for the equilibrium dissociation constant of an inhibitor or competing ligand from its target. A low value points to higher affinity. A word on the Kd: it is the free concentration of one partner at which half of the binding sites on the other are occupied at equilibrium, for simple one-to-one binding.

`Cc1cccc(C)c1OCC(=O)N[C@@H](Cc1ccccc1)[C@@H](O)C[C@H](Cc1ccccc1)NC(=O)[C@H](C(C)C)N1CCCNC1=O` [LOPINAVIR] registered an inhibitory constant (Ki) in experiment [1] of 0.08 nM. The molecule further came in with a dissociation constant Kd in experiment [2] of 0.1 nM.

The record behind these values is ChEMBL document CHEMBL1138847, “Improved structure-activity relationship analysis of HIV-1 protease inhibitors using interaction kinetic data” (J Med Chem, 2004).
